What was measured:
[1] = molecular target: Protein kinase C alpha type (Homo sapiens) (UniProt P17252); experiment: Percentage PKCalpha activity remaining in the presence of 25uM inhibitor
[2] = molecular target: T1, 3-phosphoinositide-dependent protein kinase 1 (Homo sapiens) (UniProt O15530); experiment: Percentage PDK1 activity remaining in the presence of 25uM inhibitor
T1 sequence (whole entry): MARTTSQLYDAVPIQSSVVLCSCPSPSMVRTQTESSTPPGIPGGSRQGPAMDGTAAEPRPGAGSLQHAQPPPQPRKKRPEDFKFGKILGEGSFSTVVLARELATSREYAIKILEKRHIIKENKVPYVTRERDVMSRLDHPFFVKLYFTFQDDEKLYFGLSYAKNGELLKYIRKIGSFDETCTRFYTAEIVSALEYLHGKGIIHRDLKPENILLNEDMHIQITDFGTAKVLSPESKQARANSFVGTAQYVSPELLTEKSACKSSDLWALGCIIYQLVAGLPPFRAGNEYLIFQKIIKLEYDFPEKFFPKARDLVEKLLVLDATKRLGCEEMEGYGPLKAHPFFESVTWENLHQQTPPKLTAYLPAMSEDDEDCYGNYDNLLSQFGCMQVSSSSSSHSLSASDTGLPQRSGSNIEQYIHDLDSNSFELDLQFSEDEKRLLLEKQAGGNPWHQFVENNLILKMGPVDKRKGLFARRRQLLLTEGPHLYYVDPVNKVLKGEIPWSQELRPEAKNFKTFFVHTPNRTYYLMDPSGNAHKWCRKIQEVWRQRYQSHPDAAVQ

The chains behind the UniProt entries cited, without tags or fusion partners. Where a name states a change or a piece, a line headed by the entry shows the natural chain unless it says otherwise.
UniProt Q96SB4, whole entry: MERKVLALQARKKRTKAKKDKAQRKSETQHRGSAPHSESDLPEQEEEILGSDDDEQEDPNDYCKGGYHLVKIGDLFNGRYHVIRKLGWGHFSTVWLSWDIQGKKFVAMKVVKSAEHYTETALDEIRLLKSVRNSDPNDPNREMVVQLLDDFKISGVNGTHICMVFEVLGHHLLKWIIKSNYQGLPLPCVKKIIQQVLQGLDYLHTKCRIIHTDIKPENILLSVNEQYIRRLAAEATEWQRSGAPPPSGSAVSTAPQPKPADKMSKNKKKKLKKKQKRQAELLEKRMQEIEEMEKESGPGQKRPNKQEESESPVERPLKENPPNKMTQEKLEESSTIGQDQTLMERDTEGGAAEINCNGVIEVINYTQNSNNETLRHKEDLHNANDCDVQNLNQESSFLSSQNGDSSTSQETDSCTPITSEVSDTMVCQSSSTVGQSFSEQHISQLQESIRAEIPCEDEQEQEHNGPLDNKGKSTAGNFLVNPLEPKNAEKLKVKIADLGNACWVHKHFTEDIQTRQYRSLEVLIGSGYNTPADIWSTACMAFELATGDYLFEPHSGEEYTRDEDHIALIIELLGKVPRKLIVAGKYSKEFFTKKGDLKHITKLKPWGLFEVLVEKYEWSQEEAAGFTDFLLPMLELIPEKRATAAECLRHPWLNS
UniProt P45983: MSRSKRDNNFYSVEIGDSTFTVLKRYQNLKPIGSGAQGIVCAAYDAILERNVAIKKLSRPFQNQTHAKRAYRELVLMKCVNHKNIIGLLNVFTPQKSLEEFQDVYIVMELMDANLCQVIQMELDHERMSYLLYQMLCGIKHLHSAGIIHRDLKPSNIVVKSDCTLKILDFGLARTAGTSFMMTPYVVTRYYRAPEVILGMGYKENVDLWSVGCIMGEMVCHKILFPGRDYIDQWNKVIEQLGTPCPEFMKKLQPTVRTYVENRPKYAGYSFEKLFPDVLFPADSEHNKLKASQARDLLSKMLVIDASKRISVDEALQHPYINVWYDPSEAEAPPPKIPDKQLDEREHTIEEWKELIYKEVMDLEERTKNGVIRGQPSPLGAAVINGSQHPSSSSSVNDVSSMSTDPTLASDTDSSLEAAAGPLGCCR

[3] = molecular target: SRSF protein kinase 1 (Homo sapiens) (UniProt Q96SB4); experiment: Percentage SRPK1 activity remaining in the presence of 25uM inhibitor
[4] = molecular target: Mitogen-activated protein kinase 8 (Homo sapiens, UniProt P45983); experiment: Percentage JNK1 activity remaining in the presence of 25uM inhibitor

## COc1cc(OC)c(/C=C2/C(=O)Nc3ccccc32)c(OC)c1
[1]
  Activity: 90%
[2]
  Activity: 89%
[3]
  Activity: 95%
[4]
  Activity: 94%

From ChEMBL document CHEMBL1150976, “The selectivity of protein kinase inhibitors: a further update” (Biochem J, 2007)
